Measurements as given in ChEMBL document CHEMBL5331051, “Cationic, amphipathic small molecules based on a triazine-piperazine-triazine scaffold as a new class of antimicrobial agents” (Eur J Med Chem, 2022).
Converted amounts (≈) assume the structure as drawn.

Key:
Format in all cases: functional
Conditions in all cases: time 18-24 hrs
Pseudomonas aeruginosa [1] = experiment: Antibacterial activity against multidrug-resistant Pseudomonas aeruginosa CCARM 2109 strain assessed as bacterial growth inhibition measured at 18 to 24 hrs by microdilution assay
Pseudomonas aeruginosa [2] = experiment: Antibacterial activity against Pseudomonas aeruginosa KCTC 1637 strain assessed as bacterial growth inhibition measured at 18 to 24 hrs by microdilution assay
Escherichia coli = experiment: Antibacterial activity against Escherichia coli KCTC 1682 strain assessed as bacterial growth inhibition measured at 18 to 24 hrs by microdilution assay
Staphylococcus aureus [3] = experiment: Antibacterial activity against methicillin-resistant Staphylococcus aureus CCARM 3090 strain assessed as bacterial growth inhibition measured at 18 to 24 hrs by microdilution assay
Pseudomonas aeruginosa [4] = experiment: Antibacterial activity against multidrug-resistant Pseudomonas aeruginosa CCARM 2095 strain assessed as bacterial growth inhibition measured at 18 to 24 hrs by microdilution assay
Staphylococcus aureus [5] = experiment: Antibacterial activity against Staphylococcus aureus KCTC 1621 strain assessed as bacterial growth inhibition measured at 18 to 24 hrs by microdilution assay
Staphylococcus aureus [6] = experiment: Antibacterial activity against methicillin-resistant Staphylococcus aureus CCARM 3095 strain assessed as bacterial growth inhibition measured at 18 to 24 hrs by microdilution assay
[7] = tested on: Staphylococcus epidermidis; experiment: Antibacterial activity against Staphylococcus epidermidis KCTC 1917 strain assessed as bacterial growth inhibition measured at 18 to 24 hrs by microdilution assay
Staphylococcus aureus [8] = experiment: Antibacterial activity against methicillin-resistant Staphylococcus aureus CCARM 3089 strain assessed as bacterial growth inhibition measured at 18 to 24 hrs by microdilution assay

With `CC[C@H](C)[C@H](NC(=O)CN)C(=O)NCC(=O)N[C@@H](C)C(=O)N[C@H](C(=O)N[C@@H](CC(C)C)C(=O)N[C@@H](CCCCN)C(=O)N[C@H](C(=O)N[C@@H](CC(C)C)C(=O)N[C@H](C(=O)N[C@H](C(=O)NCC(=O)N[C@@H](CC(C)C)C(=O)N1CCC[C@H]1C(=O)N[C@@H](C)C(=O)N[C@@H](CC(C)C)C(=O)N[C@H](C(=O)N[C@@H](CO)C(=O)N[C@@H](Cc1c[nH]c2ccccc12)C(=O)N[C@H](C(=O)N[C@@H](CCCCN)C(=O)N[C@@H](CCCNC(=N)N)C(=O)N[C@@H](CCCCN)C(=O)N[C@@H](CCCNC(=N)N)C(=O)N[C@@H](CCC(N)=O)C(=O)N[C@@H](CCC(N)=O)C(N)=O)[C@@H](C)CC)[C@@H](C)CC)[C@@H](C)O)[C@@H](C)O)C(C)C)C(C)C` [MELITTIN] the MIC (Pseudomonas aeruginosa [1]) was 2.8 µM (≈ 7.97 µg/mL), the MIC (Pseudomonas aeruginosa [2]) was 2.8 µM (≈ 7.97 µg/mL) and the MIC (Escherichia coli) was 5.6 µM (≈ 15.9 µg/mL). It also gave an MIC (Staphylococcus aureus [3]) of 2.8 µM (≈ 7.97 µg/mL), an MIC (Pseudomonas aeruginosa [4]) of 5.6 µM (≈ 15.9 µg/mL) and an MIC (Staphylococcus aureus [5]) of 5.6 µM (≈ 15.9 µg/mL). It also gave an MIC (Staphylococcus aureus [6]) of 2.8 µM (≈ 7.97 µg/mL), an MIC [7] of 5.6 µM (≈ 15.9 µg/mL) and an MIC (Staphylococcus aureus [8]) of 2.8 µM (≈ 7.97 µg/mL).
